# Measured affinities in a library of Ab-95 light chain variants

From the AlphaSeq antibody data of Engelhart et al. 2022 (doi:10.1038/s41597-022-01779-4), copy in the FLAb collection.

Target peptide (SARS-CoV-2 spike, HR2 region): PDVDLGDISGINAS

Each scFv is VH, a 15-residue (Gly4Ser)3 linker, VL, as in the parent Ab-95, and differs from it in the CDRs of the light chain only.
VH: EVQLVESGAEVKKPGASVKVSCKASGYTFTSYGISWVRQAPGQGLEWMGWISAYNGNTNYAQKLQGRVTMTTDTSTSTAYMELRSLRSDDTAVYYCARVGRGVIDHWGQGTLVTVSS
VL: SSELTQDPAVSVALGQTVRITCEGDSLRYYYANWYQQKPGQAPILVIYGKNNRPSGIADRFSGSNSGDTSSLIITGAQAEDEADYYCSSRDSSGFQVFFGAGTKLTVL

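The starting antibody came from a phage panning campaign against this peptide. The library (AAYL52) carries one to three amino acid substitutions per variant, with no insertions or deletions. AlphaSeq pools MATa yeast showing the antibodies with MATalpha yeast showing the peptide. Pairs that bind mate more often; barcode pairs of the diploids are counted by sequencing. Scores were corrected for input abundance and mapped to Kd with protein pairs of known affinity run in the same pool. The assay was run in three technical replicates.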

Changes read parent residue, position, new residue, counted from the first residue of the VL shown.
Values are log10 of the apparent Kd in nM; lower means stronger binding.
Replicates are averaged; those with no signal do not enter the mean.
An entry "ND" has no value in the source: the pair was not observed among the diploids in that replicate. This suggests poor binding but is not conclusive.
Nonspecific signal, from three strains lacking the peptide, appeared in 28% of pairings of library AAYL52, centred on 3.91 (5% of these signals below 2.90); values are not corrected for it. For each scFv, signals with the empty controls are counted beside the result, with their mean in brackets.
In this assay the parent's reference entry averaged 2.31; its copy inside this library read 2.25.

changes | log10 Kd (nM) by replicate | mean log10 Kd (nM) | signal with controls
R53P+P54V+S92R | 3.02 / 2.70 / 2.67 | 2.80 | 4/9 (3.88)
R53V+S55C+S89L | 2.99 / ND / ND | 2.99 | 0/9
Y29V+Y31A+P54T | 3.50 / 2.78 / ND | 3.14 | 4/9 (4.10)
E23I+N33Q+G49Q | 3.60 / 5.27 / 4.35 | 4.40 | 4/9 (3.80)
S26D+R28M+V97T | 3.11 / 3.41 / ND | 3.26 | 0/9
S26Y+N33F+S92V | 4.97 / 4.68 / ND | 4.82 | 6/9 (4.15)
E23K+S89G+S92L | 2.17 / 2.25 / 3.09 | 2.50 | 1/9 (5.06)
Y29H+G49P+K50D | 3.08 / 3.29 / 3.71 | 3.36 | 3/9 (4.07)
G24V+S88H+S92T | ND / 4.22 / ND | 4.22 | 2/9 (3.49)
R28G+R53S+S93H | ND / 3.54 / ND | 3.54 | 0/9
S55A | 1.94 / 1.87 / 1.79 | 1.87 | 1/9 (3.63)
R90V+D91E+F98Q | 2.84 / 5.35 / ND | 4.09 | 4/9 (3.75)
D91F+F98T | 2.90 / 3.58 / ND | 3.24 | 2/9 (4.24)
G24Y+L27I+N33I | 4.26 / 3.91 / ND | 4.09 | 2/9 (4.65)
S26L+Y31V+F95V | ND / ND / ND | ND | 2/9 (3.15)
E23I+N33I+K50E | ND / 4.34 / ND | 4.34 | 2/9 (3.20)
R28Y+G49N+V97F | 3.02 / 4.07 / ND | 3.54 | 2/9 (4.12)
E23S+Y29W+S89T | 2.45 / 2.76 / 2.64 | 2.62 | 1/9 (4.10)
A32F+G94W+F98E | ND / ND / ND | ND | 1/9 (4.14)
R53L+G94Y+F98R | ND / 5.09 / ND | 5.09 | 2/9 (3.83)
S55A+D91C+F95H | 3.43 / 2.78 / 3.35 | 3.19 | 1/9 (3.11)
D91E+Q96A+F98R | 2.09 / 1.80 / 2.13 | 2.01 | 1/9 (4.51)
D25P+N51T+P54D | ND / ND / ND | ND | 1/9 (2.44)
A32G+R53D+S88D | ND / 5.07 / ND | 5.07 | 5/9 (4.28)
N33P+S88H+S92K | ND / ND / ND | ND | 1/9 (4.11)
S26Y+F95G | 3.54 / 3.33 / 2.11 | 2.99 | 1/9 (3.84)
N33G+P54Q+F95Q | ND / ND / ND | ND | 1/9 (3.23)
Y30G+N33Y+F98G | 3.22 / 2.73 / 1.95 | 2.63 | 5/9 (3.69)
P54N+S88I+S92D | 2.47 / 2.59 / 1.84 | 2.30 | 0/9
R53A+Q96A | 4.10 / 3.23 / 2.96 | 3.43 | 4/9 (3.92)
R28A+K50D+S89E | 2.14 / 2.44 / 2.19 | 2.25 | 4/9 (4.42)
S26H+N51A+S92F | 3.44 / 4.06 / 3.27 | 3.59 | 3/9 (4.03)
L27E+P54W | 3.62 / 5.00 / 3.95 | 4.19 | 2/9 (3.73)
R28G+G49W+N52G | 4.40 / 2.63 / 3.65 | 3.56 | 4/9 (4.10)
E23A+G24R+G49F | ND / ND / ND | ND | 0/9
S88R+S92T+Q96E | 3.44 / 3.50 / ND | 3.47 | 1/9 (2.78)
R28D+N52L+S93N | 2.93 / 2.71 / 2.77 | 2.80 | 3/9 (3.91)
G49L+S88I+D91R | 5.05 / ND / ND | 5.05 | 0/9
Y31I+N52L+S89R | 3.15 / ND / ND | 3.15 | 4/9 (3.47)
G24N+R53C+S88P | ND / 5.15 / ND | 5.15 | 2/9 (4.61)
E23K+S89F+Q96F | 2.52 / 2.12 / 2.74 | 2.46 | 3/9 (3.81)

A selection of 5 entries from above:

changes | log10 Kd (nM) by replicate | mean log10 Kd (nM) | signal with controls
S26Y+F95G | 3.54 / 3.33 / 2.11 | 2.99 | 1/9 (3.84)
R28G+R53S+S93H | ND / 3.54 / ND | 3.54 | 0/9
S26D+R28M+V97T | 3.11 / 3.41 / ND | 3.26 | 0/9
S55A | 1.94 / 1.87 / 1.79 | 1.87 | 1/9 (3.63)
D91E+Q96A+F98R | 2.09 / 1.80 / 2.13 | 2.01 | 1/9 (4.51)